System: Single-donor human red blood cells
Experiment: Hemolysis assay
Type: cell-based
Procedure: Single-donor human red blood cells (Innovative Research, no. IWB3ALS) were washed in PBS and adjusted to a concentration of 1 × 10^9 cells/ml. Each peptide was added individually to 200 μl of cells at a concentration of either 300 μg/ml (SySA library) or 128 μg/ml (SySA-5 optimization library) in a 96-well polypropylene plate (Corning, 3879). PBS alone and 1% Triton X-100 were used for background normalization and 100% hemolysis, respectively. Each reaction was set up in triplicate. Plates were incubated for 3 hours at 37°C. Following incubation, samples were centrifuged at 800g for 20 min, and 100 μl of supernatant was transferred to a flat-bottom 96-well plate (Genesse, 25-104). Percent hemolysis for each sample was determined by normalizing the absorbance at 540 nm for each sample to the average background and dividing by the average absorbance for 1% Triton X-100 (100% hemolysis). Error bars represent 1 SD of triplicate samples.

Protegrin-1 [reference compound]
Fold Change Hemolysis (hemolysis at 128 µg/ml, fold change relative to SySA-5): 32.7 | Hemolysis (%) (human red blood cells 1x10^9 cells/ml, peptide 300 μg/ml, 3 h 37°C, relative to 1% Triton X-100, A540, ± 1 SD, n=3): 41.84 ± 5.03%
